Target: Galanin
Test: Galanin; [I125]Galanin
Type: binding
Conditions: reference compound, QA/QC; read-out: Ref Kj

Galanin (Porcine)
Ki: 0.194 nM

Reference: patent US20020187514A1 (priority 1999, published 2002)
